Values quoted from earlier work in patent publication US20210230300A1, “INHIBITORS OF SHP2” (Bayer Aktiengesellschaft, priority 2018, published 2021).

Sequences of proteins named here, by UniProt entry; tags and fusion partners are left off.
UniProt Q06124, whole entry: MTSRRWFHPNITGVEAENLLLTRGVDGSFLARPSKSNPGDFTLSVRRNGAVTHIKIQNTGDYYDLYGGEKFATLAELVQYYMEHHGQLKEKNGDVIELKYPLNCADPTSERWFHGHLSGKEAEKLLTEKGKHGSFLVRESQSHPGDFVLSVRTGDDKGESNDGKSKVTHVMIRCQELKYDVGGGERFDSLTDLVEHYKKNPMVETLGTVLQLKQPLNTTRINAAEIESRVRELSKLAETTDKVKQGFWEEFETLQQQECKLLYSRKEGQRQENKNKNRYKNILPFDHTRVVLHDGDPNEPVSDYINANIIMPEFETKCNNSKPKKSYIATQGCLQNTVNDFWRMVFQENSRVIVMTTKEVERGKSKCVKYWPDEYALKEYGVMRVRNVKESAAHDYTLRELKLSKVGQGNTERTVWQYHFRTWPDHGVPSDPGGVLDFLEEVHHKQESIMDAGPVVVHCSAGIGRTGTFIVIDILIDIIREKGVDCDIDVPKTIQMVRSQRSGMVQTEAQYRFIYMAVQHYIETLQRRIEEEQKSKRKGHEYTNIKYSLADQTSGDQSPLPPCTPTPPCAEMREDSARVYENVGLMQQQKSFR

Key:
20 other PTPs = details: cited from earlier work
SHP2 = SHP2 (Homo sapiens, UniProt Q06124); details: anchors to the SHP2 active site; cited from earlier work

## Cn1c(-c2cccc(NC(=O)C(=O)Nc3ccc(-c4ccsc4)cc3)c2)c(I)c2cc(C(=O)O)c(O)cc21
20 other PTPs
  selectivity against any of 20 other PTPs: > 5 fold
SHP2
  IC50: 200 nM
